Where two headings read alike, the source gives them in different places.
Experiments:
[1] = biological target: Mammalian Cathepsin S (Homo sapiens, UniProt P25774); experiment: Ki competitive inhibition, mammalian cathepsin S
Experimental: (§1) Cathepsin S (Mammalian, murine and rat)
(§2) Assays were performed in 100 mM sodium phosphate, 100 mM NaCl, pH 6.5 (buffer) in white 384 well plates (Coming Costar). Eight inhibitors were assayed per plate.
(§3) Inhibitor dilutions were performed on a 96 well V-bottomed polypropylene plate (Corning Costar). 100 μl of buffer was placed in wells 2-5 and 7-12 of rows A, B, C and D. Sufficient of each inhibitor at 10 mM in DMSO was placed into wells A1-D1 and A6-D6 to give the desired final concentration when the volume in the well was made up to 200 μl with buffer. Column 1 was made up to 200 μl with buffer, mixed by aspirating and dispensing 100 μl in the well, and 100 μl transferred to column 2. The pipette tips were changed and the mixing and transferral repeated to column 5. This process was repeated for columns 6-10.
(§4) Substrate dilutions were performed on a 96 deep well polypropylene plate (Beckman Coulter). 280 μl of buffer was placed in wells B-H of columns 1 and 2.70 μl of 10 mM boc-Val-Leu-Lys-AMC was placed in A1 and A2. 2×250 μl of buffer was added to wells A1 and A2, mixed by aspirating and dispensing 280 μl in the well, and 280 μl transferred to row B. The pipette tips were changed and the process repeated down the plate to row H.
(§5) Column 1 of the substrate dilution plate was distributed at 10 μl per well into alternate rows beginning at row A. Column 2 was distributed to alternate rows beginning at row B. Row A of the inhibitor dilution plate was distributed at 10 μl per well to alternate rows and columns starting at A1. Row B was distributed to alternate rows and columns starting at A2. Row C was distributed to alternate rows and columns starting at B1 and row D was distributed to alternate rows and columns starting at B2. The assay was started by the addition of 30 μl per well of 20 nM cathepsin S in buffer containing 10 mM 2-mercaptoethanol.
(§6) Data were saved as text files and imported into Excel. The initial rates were determined by linear regression and then fitted to the competitive inhibition equation using SigmaPlot.

Protein sequences, listed by entry. Tags and fused reporters are not part of them. Residues count along the entry.
UniProt P25774, 115-331 limits assumed: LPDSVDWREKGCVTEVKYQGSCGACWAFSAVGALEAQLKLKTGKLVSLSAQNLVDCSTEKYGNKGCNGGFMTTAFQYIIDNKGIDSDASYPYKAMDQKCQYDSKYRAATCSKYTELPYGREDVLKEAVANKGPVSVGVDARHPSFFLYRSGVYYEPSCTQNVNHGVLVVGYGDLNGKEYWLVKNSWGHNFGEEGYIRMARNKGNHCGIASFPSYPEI
UniProt P07711, 114-333 limits assumed: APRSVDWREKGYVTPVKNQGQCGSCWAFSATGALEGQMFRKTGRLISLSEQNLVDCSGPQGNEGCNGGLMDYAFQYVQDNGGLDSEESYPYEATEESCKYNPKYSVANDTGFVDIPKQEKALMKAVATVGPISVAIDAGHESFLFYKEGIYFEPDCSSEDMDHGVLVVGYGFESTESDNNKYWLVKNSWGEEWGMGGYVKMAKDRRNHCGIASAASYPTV
UniProt P43235, 115-329 limits assumed: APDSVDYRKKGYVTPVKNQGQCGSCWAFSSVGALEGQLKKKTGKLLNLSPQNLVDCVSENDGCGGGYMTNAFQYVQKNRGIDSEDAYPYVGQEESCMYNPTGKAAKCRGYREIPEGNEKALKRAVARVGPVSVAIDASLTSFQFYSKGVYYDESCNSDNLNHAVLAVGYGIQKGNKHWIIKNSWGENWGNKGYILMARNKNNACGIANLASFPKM
UniProt Q02765, 113-330 limits assumed: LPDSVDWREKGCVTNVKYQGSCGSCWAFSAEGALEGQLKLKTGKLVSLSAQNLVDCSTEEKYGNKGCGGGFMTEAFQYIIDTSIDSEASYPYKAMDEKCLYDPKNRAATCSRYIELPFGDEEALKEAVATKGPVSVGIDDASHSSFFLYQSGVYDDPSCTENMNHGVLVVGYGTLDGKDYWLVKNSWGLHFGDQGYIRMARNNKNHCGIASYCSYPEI

[2] = biological target: Mammalian Cathepsin L (Homo sapiens, UniProt P07711); experiment: Ki competitive inhibition, cathepsin L; details: read-out: Ki competitive inhibition measurements vs Mammalian Cathepsin L; Table 1, second line of each CAP-P2 block
Experimental: as §6
(§7) Assays were performed essentially as above. For cathepsin L, the buffer used was 100 mM sodium acetate, 1 mM EDTA, pH 5.5 and the substrate was D-Val-Leu-Lys-AMC with a highest concentration of 100 μM. For cathepsin K, the buffer used was 100 mM MES/Tris, 1 mM EDTA, pH 7.0 and the substrate was D-Ala-Leu-Lys-AMC with a highest concentration of 250 μM.

[3] = biological target: Mammalian Cathepsin K (Homo sapiens, UniProt P43235); experiment: Ki competitive inhibition, cathepsin K; details: read-out: Ki competitive inhibition measurements vs Mammalian Cathepsin K; Table 1, third line of each CAP-P2 block
Experimental: as §7
Convenient assays for cathepsin K arere carried out using human recombinant enzyme. Standard assay conditions for the determination of kinetic constants used a fluorogenic peptide substrate, typically H-D-Ala-Leu-Lys-AMC, and were determined in either 100 mM Mes/Tris, pH 7.0 containing 1 mM EDTA and 10 mM 2-mercaptoethanol or 100 mM Na acetate, pH 5.5 containing 5 mM EDTA and 20 mM cysteine. The enzyme concentration used was 5 nM. The stock substrate solution was prepared at 10 mM in DMSO. Screens were carried out at a fixed substrate concentration of 60 μM and detailed kinetic studies with doubling dilutions of substrate from 250 μM. The total DMSO concentration in the assay was kept below 3%. All assays were conducted at ambient temperature. Product fluorescence (excitation at 390 nm, emission at 460 nm) was monitored with a Labsystems Fluoroskan Ascent fluorescent plate reader. Product progress curves were generated over 15 minutes following generation of AMC product.
Potential inhibitors are screened using the above assay with variable concentrations of test compound. Reactions were initiated by addition of enzyme to buffered solutions of substrate and inhibitor. Ki values were calculated according to equation 1 [formula] where ν0 is the velocity of the reaction, V is the maximal velocity, S is the concentration of substrate with Michaelis constant of KM, and I is the concentration of inhibitor. Determination of Falcipain 2 Proteolytic Catalytic Activity

[4] = biological target: Rat Cathepsin S (Rattus norvegicus, UniProt Q02765); experiment: Ki competitive inhibition, rat cathepsin S; details: read-out: Ki (μM) Rat, Rat Cathepsin S; Table 2, Rat
Experimental: as §1, §2, §3, §4, §5, §6

[5] = biological target: Murine Cathepsin S (Mus musculus, UniProt O70370); experiment: Ki competitive inhibition, murine cathepsin S; details: read-out: Ki (μM) Mouse, Murine Cathepsin S; Table 2, Mouse
Experimental: as §1, §2, §3, §4, §5, §6

[6] = read-out: Ki (μM) Human, Mammalian Cathepsin S, Table 2, Human
[7] = read-out: Ki competitive inhibition measurements vs Mammalian Cathepsin S, Table 1, first line of each CAP-P2 block

SMILES	Ki [1, 6]	Ki [1, 7]	Ki [2]	Ki [3]	Ki [4]	Ki [5]
CC[C@@H]1OCC(=O)[C@H]1NC(=O)[C@H](CC(C)(C)CC)NC(=O)c1ccsc1	0.057 µM	0.057 µM	54600 nM	1040 nM	–	–
CC(C)CC[C@H](NC(=O)N1CCOCC1)C(=O)N[C@@H]1COCC1=O	–	0.46 µM	58200 nM	16400 nM	–	–
Cc1cc(C(=O)N[C@@H](Cc2ccc(O)cc2)C(=O)N[C@@H]2C(=O)CO[C@H]2C)oc1C	–	2.7 µM	250 nM	> 100000 nM	–	–
C[C@H]1OCC(=O)[C@H]1NC(=O)[C@H](CC(C)(C)C)NC(=O)c1ccccc1	–	0.42 µM	6600 nM	850 nM	–	–
CCCC[C@H](NC(=O)c1ccc(N(C)C)cc1)C(=O)N[C@@H]1COCC1=O	–	5.7 µM	15200 nM	130 nM	–	–
CCCC[C@H](NC(=O)c1ccc(O)cc1)C(=O)N[C@H]1C(=O)CO[C@H]1C	–	0.57 µM	21100 nM	13400 nM	–	–
CC(C)C(C)(C)C[C@H](NC(=O)c1ccsc1)C(=O)N[C@@H]1C(=O)CO[C@H]1C	0.256 µM	0.256 µM	99400 nM	10000 nM	–	–
CC(C)(C)C[C@H](NC(=O)c1ccoc1)C(=O)N[C@@H]1COCC1=O	–	0.24 µM	68100 nM	910 nM	–	–
O=C(N[C@@H](Cc1ccc(O)cc1)C(=O)N[C@@H]1COCC1=O)c1ccccc1	–	1.8 µM	360 nM	> 100000 nM	–	–
CC(C)C(C)(C)C[C@H](NC(=O)c1ccoc1)C(=O)N[C@@H]1C(=O)CO[C@H]1C	0.236 µM	0.236 µM	65600 nM	> 100000 nM	0.58 µM	0.294 µM
CCC(C)(C)C[C@H](NC(=O)c1ccsc1)C(=O)N[C@@H]1C(=O)CO[C@H]1C	0.2 µM	0.2 µM	79600 nM	5950 nM	–	–
CC(C)CC[C@H](NC(=O)N1CCOCC1)C(=O)N[C@H]1COCC1=O	–	0.25 µM	71500 nM	21600 nM	–	–
CC(C)C[C@H](NC(=O)c1ccccc1)C(=O)N[C@@H]1C(=O)CO[C@@H]1C	–	0.43 µM	310 nM	430 nM	–	–
CC[C@@H]1OCC(=O)[C@H]1NC(=O)[C@H](CC(C)(C)C(C)C)NC(=O)c1ccsc1	0.021 µM	0.021 µM	90800 nM	1940 nM	0.657 µM	0.091 µM
CC[C@@H]1OCC(=O)[C@H]1NC(=O)[C@H](CC(C)(C)C)NC(=O)c1ccsc1	–	–	14500 nM	325 nM	0.048 µM	0.024 µM
CC(C)CC[C@H](NC(=O)c1ccsc1)C(=O)N[C@@H]1C(=O)CO[C@H]1C	0.28 µM	–	–	–	–	–
CC(C)CC[C@H](NC(=O)CCc1ccccc1)C(=O)N[C@@H]1C(=O)CO[C@@H]1C	–	3.2 µM	55800 nM	13000 nM	–	–
Cc1cc(C(=O)N[C@@H](CC(C)C)C(=O)N[C@H]2COCC2=O)oc1C	–	0.55 µM	140 nM	440 nM	–	–
CC(C)C[C@H](NC(=O)c1ccccc1)C(=O)N[C@H]1COCC1=O	–	0.36 µM	150 nM	210 nM	–	–
Cc1cc(C(=O)N[C@@H](CC(C)C)C(=O)N[C@@H]2C(=O)CO[C@@H]2C)oc1C	–	0.51 µM	120 nM	440 nM	–	–

SMILES	Ki [1, 6]	Ki [1, 7]	Ki [2]	Ki [3]	Ki [4]	Ki [5]
CCCC[C@H](NC(=O)c1ccc(N(C)C)cc1)C(=O)N[C@H]1COCC1=O	–	5.4 µM	10200 nM	260 nM	–	–
C[C@H]1OCC(=O)[C@H]1NC(=O)[C@H](CC(C)(C)C)NC(=O)CCc1ccccc1	–	0.94 µM	87100 nM	5700 nM	–	–
Cc1cc(C(=O)N[C@@H](Cc2ccc(O)cc2)C(=O)N[C@H]2COCC2=O)oc1C	–	1.5 µM	–	> 100000 nM	–	–
CC(C)CC[C@H](NC(=O)c1ccccc1)C(=O)N[C@H]1COCC1=O	–	0.8 µM	5100 nM	6600 nM	–	–
CC(C)C[C@H](NC(=O)c1ccc(O)cc1)C(=O)N[C@@H]1C(=O)CO[C@@H]1C	–	0.49 µM	480 nM	83 nM	–	–
CC(C)CC[C@H](NC(=O)c1ccc(O)cc1)C(=O)N[C@@H]1C(=O)CO[C@@H]1C	–	0.68 µM	15100 nM	3100 nM	–	–
CC(C)CC[C@H](NC(=O)c1ccoc1)C(=O)N[C@H]1COCC1=O	–	0.66 µM	49700 nM	16300 nM	–	–
CC(C)C[C@H](NC(=O)c1ccc(N(C)C)cc1)C(=O)N[C@@H]1C(=O)CO[C@H]1C	–	3.7 µM	4900 nM	150 nM	–	–
C[C@H]1OCC(=O)[C@H]1NC(=O)[C@H](CC(C)(C)C)NC(=O)c1ccoc1	–	0.18 µM	39000 nM	1300 nM	–	–
CC(C)C[C@H](NC(=O)c1ccoc1)C(=O)N[C@H]1C(=O)CO[C@H]1C	–	0.39 µM	28400 nM	3700 nM	–	–
CC(C)CC[C@H](NC(=O)c1ccoc1)C(=O)N[C@@H]1C(=O)CO[C@H]1C [CAP8-L-hLeu/drawing 71]	0.54 µM	–	–	–	2.31 µM	0.895 µM
C[C@@H]1OCC(=O)[C@H]1NC(=O)[C@H](Cc1ccc(O)cc1)NC(=O)c1ccc(O)cc1	–	0.77 µM	1400 nM	> 100000 nM	–	–
CCC(C)(C)C[C@H](NC(=O)c1ccoc1)C(=O)N[C@@H]1C(=O)CO[C@H]1C	0.21 µM	0.21 µM	> 100000 nM	30200 nM	0.518 µM	0.263 µM
CC(C)C[C@H](NC(=O)c1ccc(N(C)C)cc1)C(=O)N[C@@H]1C(=O)CO[C@@H]1C	–	2.8 µM	690 nM	15 nM	–	–
CCCC[C@H](NC(=O)c1ccc(N(C)C)cc1)C(=O)N[C@@H]1C(=O)CO[C@@H]1C	–	4.1 µM	10500 nM	240 nM	–	–
O=C(N[C@@H](Cc1ccc(O)cc1)C(=O)N[C@@H]1COCC1=O)c1ccc(O)cc1	–	0.72 µM	350 nM	> 100000 nM	–	–
CC(C)C[C@H](NC(=O)c1ccc(O)cc1)C(=O)N[C@@H]1C(=O)CO[C@H]1C	–	0.17 µM	2040 nM	320 nM	–	–
CC[C@@H]1OCC(=O)[C@H]1NC(=O)[C@H](CC(C)(C)CC)NC(=O)c1ccoc1	0.06 µM	0.06 µM	> 100000 nM	2970 nM	–	–
CCn1nc(C)cc1C(=O)N[C@@H](Cc1ccc(O)cc1)C(=O)N[C@@H]1C(=O)CO[C@@H]1C	–	4.8 µM	60 nM	> 100000 nM	–	–
CC(C)C[C@H](NC(=O)c1ccc(O)cc1)C(=O)N[C@H]1COCC1=O	–	0.23 µM	240 nM	70 nM	–	–
